The results in this text go back to patent publication US20230414557A1, “NEW THERAPY CONCEPT FOR THE TREATMENT OF CORONA INFECTIONS, ESPECIALLY COVID-19 INFECTIONS” (priority 2020, published 2023).

The test deals with NFkB and MAPK pathways. As to the kind of experiment: S1 spike protein stimulated monocytes, Western blot of NFkB and MAPK pathways. The note with it: pretreated with 1 mM 1,8-cineole for 1 h, 5 μg/mL S1 spike protein. On the technique in general: In western blotting, separated proteins are transferred to a membrane and probed.

For the compound `CC12CCC(CC1)C(C)(C)O2` [1,8-cineole, 1,3,3-trimethyl-2-oxabicyclo[2.2.2]octane], the S1-activation of monocytes entry is listed as “significantly inhibits”. The “phosphorylations of IkBa, NFkB, Akt and Erk1/2” value (Western blot) is recorded as “can be inhibited”.
